Results as given in patent publication US20250009801A1.

What was measured:
[1] = molecular target: mouse CLDN18.2 on CHO-GS cells (mouse) (UniProt P56857); assay: flow cytometry on CHO-GS cells expressing mouse CLDN18.2; design: unit not given beside the values
[2] = molecular target: rat CLDN18.2 on CHO-GS cells (rat) (UniProt Q5I0E5); assay: flow cytometry on CHO-GS cells expressing rat CLDN18.2; design: unit not given beside the values
[3] = molecular target: human Claudin18.2-His (Acro, CL2-H5546) (human) (UniProt P56856); assay: SPR (Biacore T200), Claudin18.2-His coupled on CM5 chip, antibody in the mobile phase (avidity)
[4] = molecular target: human CLDN18.2 on cells (human) (UniProt P56856); assay: flow cytometry on SUN601 (SNU601) cells
[5] = molecular target: human CLDN18.2 on cells (human) (UniProt P56856); assay: flow cytometry on CHO-GS cells expressing human CLDN18.2
[6] = molecular target: human CLDN18.2 on cells (human) (UniProt P56856); assay: flow cytometry on DAN-G18.2 cells
[7] = molecular target: human CLDN18.2 on cells (human) (UniProt P56856); assay: flow cytometry on CHO-GS-hCLDN18.2 cells
[8] = molecular target: human CLDN18.2 on cells (human) (UniProt P56856); assay: cell-based or functional assay
[9] = molecular target: rhesus monkey CLDN18.2 on CHO-GS cells (rhesus monkey) (UniProt F6YQY3); assay: flow cytometry on CHO-GS cells expressing rhesus monkey CLDN18.2; design: unit not given beside the values

“Zolbetuximab (clone 175D10) with P329G mutated human IgG1 constant region (antibody)” was tested. Which EC90 [1] did it give?
The EC90 was 25.4.

And the EC90 [2]?
The EC90 was 65.9.

What about the Kd [3] of the same substance?
Its Kd is 1.38 nM.

What about the koff [3] of the same substance?
The koff was 0.00227 s⁻¹.

What about the kon [3] of the same substance?
The kon was 1.65e+06 M⁻¹ s⁻¹.

What about the EC50 [4] of the same substance?
Its EC50 is 97900 nM.

What about the EC90 [5] of the same substance?
Its EC90 is 113.

And the EC50 [6]?
The EC50 was 563 nM.

And the EC50 [7]?
The EC50 was 14.4 nM.

And the antibody concentration inducing complete killing of DAN-G18.2 cells by HuR968B CAR-T cells (8 h) [8]?
The antibody concentration inducing complete killing of DAN-G18.2 cells by HuR968B CAR-T cells (8 h) was 12.8 to 64 pM.

And the antibody concentration inducing complete killing of SNU601 cells by HuR968B CAR-T cells [8]?
The antibody concentration inducing complete killing of SNU601 cells by HuR968B CAR-T cells was > 64 pM.

What about the EC90 [9] of the same substance?
The EC90 was 15.8.
